In publication PMC12087695, “A Phenotyping Tool for Seven Cytochrome P450 Enzymes and Two Transporters: Application to Examine the Effects of Clopidogrel and Gemfibrozil” (Clinical Pharmacology and Therapeutics, 2025):

Experiment: Plasma pharmacokinetics of cocktail index drugs and their metabolites, five-phase crossover trial;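 further: parameters derived from plasma drug levels quantified by LC–MS with internal standards after acetonitrile protein precipitation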
Conditions: phase IV: clopidogrel 300 mg pretreatment + full cocktail

COc1ccc2[nH]c([S+]([O-])Cc3ncc(C)c(OC)c3C)nc2c1 (stereo not shown) [Omeprazole, omeprazole]
Tmax, median (range): 1.5 (1.0-3.0) h
